Results: patent US9549746B2, “Delivery device and method” (THE QUEEN'S UNIVERSITY OF BELFAST, priority 2007, dated 2017)

Conditions: PMVMA microneedles attached to aqueous fluid reservoirs containing 10,000 μg BSA cm^-3; FIG. 13

Substance: bovine serum albumin [BSA]
- delivery of BSA across Silescol membrane: delivery of significant levels
